Statin myotox sup: suppression of simvastatin myotoxicity; C2C12 myotubes + simvastatin, ATP luminescence, 48 h; scaled: DMSO 0, geranylgeraniol control 100; rescue of ATP level, % at 7.49 µM; 0.78% of 330,000 active; AID 602340;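 active = mean ATP rescue above about 67%, or every replicate alone reaching that limit, limit read from the data, passing the limit was not always enough; inconclusive = no clear call, values can overlap the other calls; inactive = mean under the limit and some replicate under it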;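 also: myotubes were challenged with 10 µM simvastatin during compound exposure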
PGC1a acetyl inh: lowers PGC1a acetylation signal in U2OS cells; AlphaScreen anti-acetyl-lysine; with virally co-expressed GCN5 acetyltransferase; inhibition, % at 15.6 µM; AID 651687; 0.17% of 350,000 active;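 active = every replicate shows inhibition of at least 40%; inconclusive = mean inhibition at least 40% but some replicate below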;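 also: 0% = neutral control wells and 100% = positive control wells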
esBAF inh: inhibitors of esBAF chromatin remodeling in mouse ES cells; Bmi1-luciferase knock-in reporter, 24 h; 100% = twice the neutral-well signal; reporter increase, % at 12.5 µM; 2% of 350,000 active; in the data active = activation above about 40%; inconclusive = no clear call, values can overlap the other calls;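 also: 0% = median of the plate's neutral control wells and 100% = double that signal; a rise in the Bmi1 reporter signal indicates esBAF inhibition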
PglD inh: blocks C. jejuni PglD acetyltransferase activity; purified PglD enzyme, DTNB colorimetric CoA detection; inhibition, % at 12.5 µM; 0.098% of 360,000 active; AID 602405; in the data active = inhibition above about 16%, passing the limit was not always enough; inconclusive = no clear call, values can overlap the other calls
E-sel inducer: induces E-selectin expression in human endothelial cells. 0.37% of 260,000 active. activation, % at 7.58 µM. AID 686992. HUVEC E-selectin immunofluorescence imaging; normalized: neutral wells 0, TNF-alpha wells 100. P16581;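 active = mean E-selectin-positive cell signal at least 10% of the positive control, reached in at least 60% of replicates, without over 20% cell loss; inconclusive = no rule given, readout overlaps actives, possibly toxicity-flagged; inactive = the rest, including those meeting only one limit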
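Test system: HUVEC; input: 3,000 HUVEC/well; measured by: immunofluorescence imaging; read-out: % PE-positive cells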
Yeast UUG start: modulators of start codon recognition fidelity in yeast; AID 602363; activity score, % at 18.7 µM; S. cerevisiae UUG-firefly luciferase reporter, luminescence/redox ratio; actives 0.13% (n = 350,000);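 active = replicate mean at a twofold rise or more, about +100% in these data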;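 note: firefly luciferase made from a UUG start codon reports start codon fidelity; reporter light over untreated wells divided by growth signal over untreated wells; some hits fall short of that in this replicate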
* = called active by the depositor; ? = inconclusive; . = no result given. This is a sample that favours compounds with a hit; in the whole collection about 2.8% have one here.

Letter code: A = Statin myotox sup; B = PGC1a acetyl inh; C = esBAF inh; D = PglD inh; E = E-sel inducer; F = Yeast UUG start
C/C(=N\Nc1ccccn1)c1ccc2c(c1)OCO2
  A = -10 | B = . | C = 61* | D = -7 | E = 1 | F = -4
Cc1ccc(S(=O)(=O)NCC[C@H]2CC[C@H](NC(=O)Nc3cccc(F)c3)[C@H](CO)O2)cc1
  A = -3 | B = -1 | C = 4 | D = 2 | E = 0 | F = -2
C[C@H](O)C#Cc1ccc2c(c1)O[C@@H](CN(C)C(=O)CC1CC1)[C@@H](C)CN([C@H](C)CO)S2(=O)=O
  A = 9 | B = -15 | C = 0 | D = -2 | E = 0 | F = 6
COc1ccc(NC(=O)c2cnn(-c3ccccc3)c2C)cc1
  A = -10 | B = . | C = -2 | D = 1 | E = . | F = -5
COc1ccc(CN2CCn3ncc(C(=O)Nc4ccccc4)c3C2=O)cc1
  A = . | B = 129* | C = . | D = . | E = . | F = .
CO[C@@H]1CN(C)C(=O)c2cc(NC(=O)c3ccno3)ccc2OC[C@H](C)NC[C@@H]1C
  A = -3 | B = 2 | C = -4 | D = -1 | E = 1 | F = -9
CCCCN1C(=O)/C(=C2\SC(N3CCCCC3)=NC2=O)c2ccccc21
  A = ? | B = -26 | C = 51* | D = -7 | E = . | F = -15
COCC(C)n1c(C)cc(C(=O)COC(=O)c2n[nH]c3ccccc23)c1C (stereo not drawn)
  A = . | B = -10 | C = . | D = . | E = . | F = .
COCC(C)n1c(C)cc(C(=O)COC(=O)c2oc3ccccc3c2C)c1C (stereo not drawn)
  A = 73* | B = -6 | C = -23 | D = -2 | E = . | F = -20
COC(=O)N/N=C/c1ccc(-c2cccc(Cl)c2)o1
  A = . | B = . | C = . | D = . | E = 0 | F = .
Nc1ccccc1N=Cc1ccc(-c2cccc(Cl)c2)o1
  A = -9 | B = -13 | C = 98* | D = -2 | E = . | F = -17
CCCNC(=O)N1CC2(C1)[C@H](c1ccccc1)[C@H](CO)N2C(=O)C1CCCC1
  A = . | B = -2 | C = . | D = . | E = 0 | F = .
Cc1cccc(C)c1NC(=O)C1C(c2ccc3c(c2)OCO3)=Nc2ccccc2N1C(=O)c1ccccn1 (stereo not drawn)
  A = . | B = . | C = . | D = . | E = 119* | F = .
Cc1cccc(C)c1NC(=O)C1C(c2ccc3c(c2)OCO3)=Nc2ccccc2N1C(=O)c1cccc(C(F)(F)F)c1 (stereo not drawn)
  A = . | B = . | C = . | D = . | E = 0 | F = .
COCCNC(=O)c1cc2c(c(-c3cccc(-c4ccc(C#N)cc4)c3)n1)[C@H](CCO)N(C(=O)CC1CC1)C2
  A = . | B = . | C = . | D = . | E = 0 | F = .
Cc1cccc(S(=O)(=O)N2C[C@@H](O)COC[C@@H]3O[C@H](CC(=O)NCc4ccc5c(c4)OCO5)CC[C@H]32)c1
  A = -11 | B = 2 | C = -1 | D = 2 | E = 0 | F = 8
COc1ccc(CNc2ccc(-c3ccc(OC)cc3)nn2)cc1
  A = -2 | B = -51 | C = 45* | D = 0 | E = . | F = -13
C#CCNC(=O)C1=C[C@H](c2ccc(C#C)cc2)C[C@H](OCCCCO)O1
  A = . | B = 1 | C = . | D = . | E = . | F = .
CSc1ccccc1OCc1cc(C(=O)NC(C)Cc2cccc(C)n2)no1 (stereo not drawn)
  A = . | B = -3 | C = . | D = -1 | E = . | F = -16
CCn1ccnc1CN(C)C(=O)c1cc(COc2ccccc2SC)on1
  A = 0 | B = 2 | C = 59* | D = 0 | E = 0 | F = -21
CSc1ccccc1OCc1cc(C(=O)NCc2cccc(C)n2)no1
  A = 2 | B = -6 | C = 78* | D = 3 | E = . | F = -24
CSc1ccccc1OCc1cc(C(=O)N(C)Cc2nonc2C)no1
  A = -4 | B = -2 | C = 65* | D = 1 | E = . | F = -16
CC(C)NC(=O)N(C)C[C@@H]1Oc2ccc(NS(=O)(=O)c3ccc(Cl)cc3)cc2CC(=O)N([C@H](C)CO)C[C@@H]1C
  A = -11 | B = 2 | C = 2 | D = -1 | E = 1 | F = -10
C[C@H]1CCCCO[C@H](CN(C)CC2CCCCC2)[C@@H](C)CN([C@@H](C)CO)C(=O)c2cc(NC(=O)Cc3ccccc3)ccc2O1
  A = . | B = -26 | C = -6 | D = -1 | E = 0 | F = 11
CCCc1nn(C)c(C(=O)Nc2ccc(C)c(C)c2)c1Cl
  A = -8 | B = 15 | C = 70* | D = 13 | E = -2 | F = -11
Cc1ccc(S(=O)(=O)N(C)C[C@H]2Oc3ncc(-c4ccncc4)cc3C(=O)N([C@H](C)CO)C[C@@H]2C)cc1
  A = 13 | B = -1 | C = 8 | D = 0 | E = 0 | F = 5
Cc1cccc(NC(=O)COc2ccc3oc4c(c3c2)CCCC4)n1
  A = 134* | B = 5 | C = 17 | D = -2 | E = . | F = -10
COCC(=O)N(C)C[C@H]1Oc2cc(-c3ccc(C#N)cc3)ccc2S(=O)(=O)N([C@@H](C)CO)C[C@@H]1C
  A = -5 | B = 8 | C = 8 | D = 0 | E = 0 | F = 5
COc1ccccc1-c1cc(C(F)(F)F)nc(S(=O)(=O)CCCC(=O)N2CCCCC2C)n1 (stereo not drawn)
  A = 84* | B = 21 | C = -12 | D = -1 | E = . | F = -3
COc1ccc(NC(=O)N[C@@H]2CC[C@H](CCn3cc(-c4ccccc4F)nn3)O[C@H]2CO)cc1
  A = 7 | B = 62* | C = -6 | D = -5 | E = 2 | F = 0

Reprinted from the part before: 3 entries, then new ones.
Letter code: A = Statin myotox sup; B = PGC1a acetyl inh; C = esBAF inh; D = PglD inh; E = E-sel inducer; F = Yeast UUG start
COCC(=O)N(C)C[C@H]1Oc2cc(-c3ccc(C#N)cc3)ccc2S(=O)(=O)N([C@@H](C)CO)C[C@@H]1C
  A = -5 | B = 8 | C = 8 | D = 0 | E = 0 | F = 5
COc1ccccc1-c1cc(C(F)(F)F)nc(S(=O)(=O)CCCC(=O)N2CCCCC2C)n1 (stereo not drawn)
  A = 84* | B = 21 | C = -12 | D = -1 | E = . | F = -3
COc1ccc(NC(=O)N[C@@H]2CC[C@H](CCn3cc(-c4ccccc4F)nn3)O[C@H]2CO)cc1
  A = 7 | B = 62* | C = -6 | D = -5 | E = 2 | F = 0
O=C(Nc1ccc(F)cc1)N[C@@H]1CC[C@H](CCn2cc(-c3ccccc3F)nn2)O[C@@H]1CO
  A = -1 | B = 9 | C = 1 | D = -4 | E = 0 | F = 3
CS(=O)(=O)N1CC2(C1)[C@H](c1ccccc1)[C@H](CO)N2CCC(F)(F)F
  A = . | B = -1 | C = . | D = . | E = 0 | F = .
C[C@@H]1CCCCO[C@H](CN(C)CC2CCCCC2)[C@@H](C)CN([C@H](C)CO)C(=O)c2cc(NC(=O)C3CCCCC3)ccc2O1
  A = . | B = -2 | C = -2 | D = 0 | E = 0 | F = 4
COc1ccc([C@@H]2CC(=O)c3c(O)cc(O)cc3O2)cc1O
  A = 4 | B = -11 | C = 54* | D = 0 | E = -2 | F = -8
CC(C)(C)N1CC(COc2ccccc2)OC1=O (stereo not drawn)
  A = 3 | B = -1 | C = 62* | D = -5 | E = . | F = -12
CC(C)N1CC(COc2ccc(Br)cc2)OC1=O (stereo not drawn)
  A = -19 | B = 1 | C = 6 | D = -6 | E = 0 | F = -23
CC(C)c1nc(-c2ccc([N+](=O)[O-])cc2)cs1
  A = -5 | B = 1 | C = 55* | D = 2 | E = 0 | F = -20
CC(=O)O[C@@H]1[C@H]2[C@@H](C[C@@H](C)[C@@H]3C=CC(=O)[C@@]13C)OC(=O)[C@@H]2C
  A = 115* | B = 8 | C = 25 | D = -1 | E = 0 | F = -3
CC(=O)O[C@@H]1[C@H]2[C@@H](C[C@@H](C)[C@@H]3CCC(=O)[C@@]13C)OC(=O)[C@@H]2C
  A = 3 | B = 1 | C = 0 | D = 4 | E = 1 | F = -12
CSc1nsc(SCC(=O)N2CCCc3ccccc32)n1
  A = 92* | B = 10 | C = 7 | D = 2 | E = . | F = -9
Cc1cc2nc(-c3ccc(SCC(=O)N4CCc5ccccc54)nc3)[nH]c2cc1C
  A = -30 | B = 1 | C = 75* | D = 5 | E = . | F = -11
Cc1cc(C)nc(SCC(=O)N2CCc3ccccc32)n1
  A = -2 | B = . | C = 42* | D = -1 | E = 1 | F = -11
Cc1ccc(SCC(=O)N2CCc3ccccc32)cc1
  A = . | B = -9 | C = 39 | D = -2 | E = . | F = -8
O=C(CSCCO)N1CCc2ccccc21
  A = 116* | B = 9 | C = -3 | D = 3 | E = . | F = 19
Nc1ccccc1SCC(=O)N1CCc2ccccc21
  A = 11 | B = 2 | C = 23 | D = 4 | E = . | F = -12
CC(C)Sc1nnc(-c2c[nH]c3ccccc23)n1C
  A = 9 | B = 6 | C = 41* | D = 0 | E = 0 | F = -16
CCCCOC(=O)Cn1c(=O)c2c(nc3n2CCCCN3c2ccc(C)cc2)n(C)c1=O
  A = 103* | B = 1 | C = -9 | D = 6 | E = . | F = -8

Screening data: PubChem, Broad Institute
